Screens: PubChem, Broad Institute
esBAF inh – SWI/SNF esBAF complex inhibition; mouse ES cells, Bmi1-luciferase knock-in reporter, 24 h; 100% = twice the neutral-well signal; reporter increase, % at 12.5 µM; hit rate 2% among 350,000; AID 602393; in the data active means activation above about 40%;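 further: 0% = median of the plate's neutral control wells and 100% = double that signal; a rise in the Bmi1 reporter signal indicates esBAF inhibition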
Wnt act – activates Wnt/beta-catenin signaling in a reporter cell assay | hit rate 1.2% among 300,000 | activator, plate reader | activation, % at 9.35 µM; in the data active means activation above about 30%, passing the limit was not always enough;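 further: 0% = neutral control wells and 100% = positive control wells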
PglD inh – PglD (C. jejuni) enzyme inhibition; hit rate 0.098% among 360,000; inhibition, % at 12.5 µM; purified PglD enzyme, DTNB colorimetric CoA detection; in the data active means inhibition above about 16%, passing the limit was not always enough
MITF TRPM1 HTS – increases MITF-driven TRPM1 promoter luciferase signal. SK-MEL-5 TRPM1-promoter luciferase, 24 h; % of positive control, neutral wells = 0. activation, % at 12.5 µM. hit rate 0.75% among 300,000. AID 588334;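 active means mean activation of at least 80% with every replicate also reaching 80%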;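 further: 0% = neutral control wells and 100% = parthenolide positive control wells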
miR-122 sensor – blocks miR-122 activity in Huh7 sensor cells; AID 602342; hit rate 0.3% among 340,000; Huh7 miR-122 Renilla luciferase sensor, 48 h; neutral wells = 0, positive control = 100; activation (reporter increase), % at 12.5 µM;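 active means mean replicate activation score at least 90 and every replicate individually at or above 90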;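 further: higher luciferase means less miR-122 activity so hits act as miR-122 inhibitors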
Yeast UUG start – alters start codon recognition fidelity in yeast; S. cerevisiae UUG-firefly luciferase reporter, luminescence/redox ratio; activity score, % at 18.7 µM; actives 0.13% (n = 350,000);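 active means replicate mean at a twofold rise or more, about +100% in these data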;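 further: firefly luciferase made from a UUG start codon reports start codon fidelity; reporter light over untreated wells divided by growth signal over untreated wells; some hits fall short of that in this replicate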
Ring1 derepress – de-represses Ring1 in mouse ESCs, confirming esBAF inhibition; shares compounds with esBAF inh; mouse ESC E14, Ring1 mRNA RT-qPCR fold change; fold change at 33 µM; 550 tested, under 10 active; AID 743176;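 active means Ring1 gene expression raised more than 2-fold over untreated cells in both replicates at either tested dose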;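 further: Ring1 transcript normalised to actin housekeeping signal by TaqMan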
Fgf4 repress – esBAF inhibition confirmed by Fgf4 repression | shares compounds with esBAF inh | mouse ESC E14, Fgf4 mRNA qPCR fold change; stronger effect = lower value | Fgf4 expression fold change at 33 µM | hit rate 4% among 550;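 active means Fgf4 expression under 0.8 fold of control in both repeat measurements at one or both tested doses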;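 further: Fgf4 transcript normalised to actin in duplex TaqMan qPCR; cells exposed to compound for 24 h before lysis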
esBAF Bmi1 qPCR – esBAF inhibition confirmed by Bmi1 de-repression. mouse ESE14 ES cells, Bmi1 mRNA qPCR fold; stronger effect = higher value. 550 tested, under 10 active. fold change at 33 µM. shares compounds with esBAF inh. AID 743180;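 active means Bmi1 expression fold change above 6 at either tested concentration, seen in replicate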
A549 tox SP – A549 cell cytotoxicity | plate reader | 550 tested, under 10 active | shares compounds with esBAF inh | cell viability change % (negative = cytotoxic), % at 25 µM, hits read low; call rule not given here
HepG2 tox SP – HepG2 cell cytotoxicity at single point. shares compounds with esBAF inh. plate reader; stronger effect = lower value. activity change, negative = inhibition, % at 25 µM. hit rate 4% among 550. AID 743189; in the data active means activity change below about -50%
HEK293 cytotox SP – HEK293 cell cytotoxicity at single point | shares compounds with esBAF inh | plate reader | activity change, negative = inhibition, % at 25 µM, hits read low | hit rate 3% among 550 | AID 743190; in the data active means activity change below about -38%, passing the limit was not always enough
Starred values were filed as active, the others as inactive; . = no result given; [ ] = remark or other dose. An excerpt weighted towards active compounds, which were near 2.8% of everything screened.

1	CNC[C@H]1Oc2ccc(NC(=O)NC(C)C)cc2C(=O)N([C@@H](C)CO)C[C@@H]1C
2	OC(c1cccc(Cl)c1)c1nc(-c2ccc3c(c2)OCO3)cs1 (centres undefined)
3	OC(c1ccccc1)c1nc(-c2ccc3c(c2)OCO3)cs1 (centres undefined)
4	COc1ccc(S(=O)(=O)N[C@H]2CC[C@@H](CC(=O)O)O[C@@H]2CO)cc1
5	C[C@H]1CN([C@@H](C)CO)C(=O)c2cc(NC(=O)Cc3ccccc3)ccc2O[C@@H]1CN(C)Cc1ccc(-c2ccccc2)cc1

compound no. | 1 | 2 | 3 | 4 | 5
esBAF inh | -0.9 | 1.6 | 61.0* | -1.2 | -0.9
Wnt act | . | 9.5 | -3.1 | . | .
PglD inh | -3.6 | -2.7 | 7.4 | -0.2 | .
MITF TRPM1 HTS | . | . | . | . | .
miR-122 sensor | -4.1[16.7 µM] | 2.3 | 0.4 | . | -2.5[16.7 µM]
Yeast UUG start | -1.8 | -11.9 | -11.3 | -13.4 | -0.3
Ring1 derepress | . | . | 0.988 | . | .
Fgf4 repress | . | . | 0.836 | . | .
esBAF Bmi1 qPCR | . | . | 1.31 | . | .
A549 tox SP | . | . | -7.9 | . | .
HepG2 tox SP | . | . | -7.9 | . | .
HEK293 cytotox SP | . | . | -6.6 | . | .

6	Nc1cccc(N=[N+]([O-])c2cccc(N)c2)c1
7	O=[N+]([O-])c1cccc(N=NNc2cccc([N+](=O)[O-])c2)c1
8	C(=Cc1cnnc2ccccc12)c1ccccc1
9	Cn1c(/C=C/c2ccccc2)nc2ccccc2c1=O
10	C[C@H](O)C#Cc1ccc2c(c1)O[C@H](CN(C)C(=O)CC1CC1)[C@@H](C)CN([C@H](C)CO)S2(=O)=O

compound no. | 6 | 7 | 8 | 9 | 10
esBAF inh | 76.9* | . | 137.6* | 34.0 | -0.6
Wnt act | 1.5 | 14.5 | -3.4 | 17.5 | .
PglD inh | 2.1 | -4.1 | -0.8 | -1.4 | -0.4
MITF TRPM1 HTS | 38.6 | . | 41.5 | 25.7 | .
miR-122 sensor | . | . | -1.1 | . | 2.3[16.7 µM]
Yeast UUG start | -14.6 | -16.9 | 1.5 | -7.3 | 0.3
Ring1 derepress | 1.39 | . | 0.949 | . | .
Fgf4 repress | 1.17 | . | 0.973 | . | .
esBAF Bmi1 qPCR | 1.48 | . | 1.33 | . | .
A549 tox SP | -2.7 | . | -7.1 | . | .
HepG2 tox SP | -18.3 | . | 93.8 | . | .
HEK293 cytotox SP | -7.3 | . | -1.8 | . | .

11	COc1ccc(NC(=O)N(C)C[C@@H]2Oc3ccc(NS(=O)(=O)c4ccc(F)cc4)cc3C(=O)N([C@@H](C)CO)C[C@H]2C)cc1
12	Nc1nc(SCc2ccccc2)sc1C(=O)N1CCCCC1
13	Nc1c(C(=O)N2CCCCC2)sc(=S)n1-c1ccccc1
14	CCCNC(=O)C[C@@H]1CC[C@H]2[C@H](COc3ccc(NC(=O)c4cc(F)cc(F)c4)cc3C(=O)N2C)O1
15	COc1cccc(NC(=O)CN(C)C(=O)CNC(=O)c2sc3ccccc3c2Cl)c1

compound no. | 11 | 12 | 13 | 14 | 15
esBAF inh | 0.9 | 59.6* | 13.0 | 3.8 | 66.5*
Wnt act | . | 42.8* | . | . | 7.3
PglD inh | 17.0 | -1.7 | -1.6 | -1.5 | -0.4
MITF TRPM1 HTS | . | . | 0.2 | . | 28.7
miR-122 sensor | 1.9[16.7 µM] | -5.2 | -1.5 | 10.0[16.7 µM] | 1.1
Yeast UUG start | 2.5 | -13.8 | 7.1 | -9.0 | -5.8
Ring1 derepress | . | 1.19 | . | . | 0.891
Fgf4 repress | . | 0.917 | . | . | 0.891
esBAF Bmi1 qPCR | . | 1.48 | . | . | 1.35
A549 tox SP | . | -9.9 | . | . | -13.6
HepG2 tox SP | . | -7.2 | . | . | -29.0
HEK293 cytotox SP | . | -10.2 | . | . | -31.7

16	CN(CC(=O)Nc1c(Cl)cccc1Cl)C(=O)CNC(=O)c1sc2ccccc2c1Cl
17	O=C(C[C@H]1CC[C@@H]2[C@H](COC[C@@H](O)CN2Cc2cc(F)cc(F)c2)O1)NCc1cccc(F)c1
18	CC(=O)Nc1ccc2c(c1Br)Cc1ccccc1-2
19	Nc1ccc2c(c1Br)Cc1ccccc1-2
20	C[C@H](CO)N1C[C@H](C)[C@@H](CN(C)C(=O)Nc2cccc3ccccc23)Oc2c(NC(=O)C3CCOCC3)cccc2C1=O

compound no. | 16 | 17 | 18 | 19 | 20
esBAF inh | 35.0 | -5.3 | 68.5* | 33.6 | 4.0
Wnt act | 1.8 | . | 46.2* | 27.4 | .
PglD inh | -3.2 | -3.7 | . | . | -9.1
MITF TRPM1 HTS | . | . | 68.5 | -0.8 | .
miR-122 sensor | 2.1 | 3.1[16.7 µM] | -3.7 | 38.5 | 1.4[16.7 µM]
Yeast UUG start | -15.9 | -13.1 | . | . | 3.7
Ring1 derepress | . | . | 1.17 | . | .
Fgf4 repress | . | . | 0.922 | . | .
esBAF Bmi1 qPCR | . | . | 2.76 | . | .
A549 tox SP | . | . | -8.2 | . | .
HepG2 tox SP | . | . | 7.5 | . | .
HEK293 cytotox SP | . | . | -6.7 | . | .
